scFv variants of Ab-95 (light chain) against a SARS-CoV-2 spike peptide

Values reported by Engelhart et al. 2022, doi:10.1038/s41597-022-01779-4 (FLAb copy).

Antigen: PDVDLGDISGINAS, a 14-residue peptide of the SARS-CoV-2 spike HR2 region.

The variants keep the heavy chain, the linker and the frameworks of Ab-95 (scFv order VH, three GGGGS repeats, VL).
VH: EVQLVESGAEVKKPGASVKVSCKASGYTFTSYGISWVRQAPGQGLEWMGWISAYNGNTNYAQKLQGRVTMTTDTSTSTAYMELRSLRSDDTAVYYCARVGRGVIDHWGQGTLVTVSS
VL: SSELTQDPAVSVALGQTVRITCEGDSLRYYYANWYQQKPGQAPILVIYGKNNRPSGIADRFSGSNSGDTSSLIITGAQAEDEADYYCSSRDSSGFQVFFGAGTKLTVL

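The starting antibody came from a phage panning campaign against this peptide. In library AAYL52, one, two or three CDR residues were substituted; doubles and triples were drawn at random. AlphaSeq pools MATa yeast showing the antibodies with MATalpha yeast showing the peptide. Mating (16 h, 30 °C) was followed by selection of diploids and sequencing of their barcodes. Read counts were normalised to the haploid input and turned into Kd by a linear fit to BCL2-family pairs of known affinity, for each replicate. Mating was done three times.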

The parent's light chain CDRs are EGDSLRYYYAN, GKNNRPS, SSRDSSGFQVF; each variant's own CDRs replace them letter for letter. All variants listed here change S26 of the VL, counted from its first residue. The Kd shown is the geometric mean over detected replicates; a lower Kd is a better binder. A pair that was not seen in any replicate is written "no signal"; this usually means weak binding, but a binder can also be missed.

EGDPLRYYYAN / GKHNRPS / SSRDSSGFQVS: 2.4 µM (3 of 3 replicates).
EGDYLRYYYAN / GKNNRIS / SSRDSSYFQVF: 100 nM (3 of 3 replicates).
EGYYLRYYIAN / GKNNRPS / SSRDSSGFQVF: 270 nM (3 of 3 replicates).
EGDILRYYYAN / GKNNRPS / SSRDSSGFQVF: 390 nM (3 of 3 replicates).
CGDWLVYYYAN / GKNNRPS / SSRDSSGFQVF: 31 µM (2 of 3 replicates).
EGDILRYYAAN / GKNNRPS / SSRDDSGFQVF: 3.0 µM (3 of 3 replicates).
EGDNLRYYYAN / GKDNRPS / SSRDSSGFQVF: 8.5 µM (3 of 3 replicates).
EGDALYYYYAN / GPNNRPS / SSRDSSGFQVF: 870 nM (3 of 3 replicates).
EGDALRYYYHN / GKNNRPS / SSRDSSGFQVI: 15 µM (2 of 3 replicates).
EGNLLRVYYAN / GKNNRPS / SSRDSSGFQVF: 290 nM (3 of 3 replicates).
EGDVLRYYYAN / GKNNRPS / SSRRYSGFQVF: 8.0 µM (2 of 3 replicates).
EGDCHRYSYAN / GKNNRPS / SSRDSSGFQVF: 3.4 µM (3 of 3 replicates).
EGLRLRYYYAN / GKNNRPS / SSRDSSGFQVF: 2.3 µM (2 of 3 replicates).
EGDLLRGYEAN / GKNNRPS / SSRDSSGFQVF: 160 nM (3 of 3 replicates).
EGDCLRYYYHN / GKDNRPS / SSRDSSGFQVF: no signal (0 of 3 replicates).
EGDFLRYYYAN / GKNNRQS / SSRDSSGLQVF: no signal (0 of 3 replicates).
EGDMLRVYYAN / GKNNRPS / SPRDSSGFQVF: 290 nM (3 of 3 replicates).
EGDPLRYYYAY / GKNNRPS / SSRDSSGCQVF: no signal (0 of 3 replicates).
NCDLLRYYYAN / GKNNRPS / SSRDSSGFQVF: no signal (0 of 3 replicates).
EGDRLRYYYPN / GKNNRPS / SSRDHSGFQVF: 2.8 µM (1 of 3 replicates).
EGDCLRYYSAN / GKNNRPS / SSRDSSGFQVV: 2.5 µM (3 of 3 replicates).
WGDGLRYYYAN / GKNNRPS / SSRDSSKFQVF: 3.3 µM (3 of 3 replicates).
EGDMLRYYLAN / KKNNRPS / SSRDSSGFQVF: 5.9 µM (3 of 3 replicates).
EGDWLRYYYAN / GKNQRPS / SSRDSSGFQVF: 1.6 µM (3 of 3 replicates).
EGDALRYYYAN / GKINRPS / SSRSSSGFQVF: 60 µM (2 of 3 replicates).
EGDWLRYYYAN / GKNNRPS / SSMDSSQFQVF: 7.4 µM (3 of 3 replicates).
EGDTPRYYYAN / GKNNRPS / SSRDSSGFQNF: 5.1 µM (1 of 3 replicates).
EGDDLRYYYAN / GKNNRPS / SSRDSSDFQFF: 5.2 µM (3 of 3 replicates).
EGDDLRYYYAN / GKNNRPS / SSRDSSGKQAF: 7.4 µM (3 of 3 replicates).
WGDILRYYYAN / GKNNRPS / SSRVSSGFQVF: 180 µM (1 of 3 replicates).
EGDFLKYYYAN / GDNNRPS / SSRDSSGFQVF: 270 nM (3 of 3 replicates).
EGDVLRYYSAN / GKNNRPS / SSRDSSGFQAF: 3.5 µM (3 of 3 replicates).
EGDILRYYEAN / GKNNRPS / SSRDSSKFQVF: 29 µM (1 of 3 replicates).
EFDGLRYYYAN / QKNNRPS / SSRDSSGFQVF: 8.9 µM (1 of 3 replicates).
EGDFLRYYYAR / GKNNRPS / SSRPSSGFQVF: 38 µM (1 of 3 replicates).
EGDFLRYHYAN / GKNNRPS / SSRDSSGFQVV: 220 nM (3 of 3 replicates).
EGDCMRYYYAN / GKNNRPS / SSEDSSGFQVF: no signal (0 of 3 replicates).
EGDELRYYYAN / GKYNRPS / SSRDSSGFQVF: no signal (0 of 3 replicates).

A selection of 2 entries from above:

{"CDR-L1": "EGDCLRYYSAN", "CDR-L2": "GKNNRPS", "CDR-L3": "SSRDSSGFQVV", "Kd (apparent)": "2.5 µM", "seen in": "3/3"}
{"CDR-L1": "EGDALRYYYAN", "CDR-L2": "GKINRPS", "CDR-L3": "SSRSSSGFQVF", "Kd (apparent)": "60 µM", "seen in": "2/3"}

Parent in this assay: reference entry 200 nM, copy in this library 180 nM. Background: pairings of library AAYL52 with three empty control strains gave a value in 28% of cases (median 8.2 µM, 5th percentile 800 nM). Values in that range, when seen in few replicates, are hard to tell from nonspecific mating.